Source: publication PMC6396489, “A signalling cascade involving receptor-activated phospholipase A2, glycerophosphoinositol 4-phosphate, Shp1 and Src in the activation of cell motility” (Cell Communication and Signaling : CCS, 2019)

Sequences of proteins named here, by UniProt entry; tags and fusion partners are left off. A line that says so, or that is headed by a name, gives the form on record, which may keep a tag or linker.
UniProt P29350, other isoform, or with tags, fused parts or gaps: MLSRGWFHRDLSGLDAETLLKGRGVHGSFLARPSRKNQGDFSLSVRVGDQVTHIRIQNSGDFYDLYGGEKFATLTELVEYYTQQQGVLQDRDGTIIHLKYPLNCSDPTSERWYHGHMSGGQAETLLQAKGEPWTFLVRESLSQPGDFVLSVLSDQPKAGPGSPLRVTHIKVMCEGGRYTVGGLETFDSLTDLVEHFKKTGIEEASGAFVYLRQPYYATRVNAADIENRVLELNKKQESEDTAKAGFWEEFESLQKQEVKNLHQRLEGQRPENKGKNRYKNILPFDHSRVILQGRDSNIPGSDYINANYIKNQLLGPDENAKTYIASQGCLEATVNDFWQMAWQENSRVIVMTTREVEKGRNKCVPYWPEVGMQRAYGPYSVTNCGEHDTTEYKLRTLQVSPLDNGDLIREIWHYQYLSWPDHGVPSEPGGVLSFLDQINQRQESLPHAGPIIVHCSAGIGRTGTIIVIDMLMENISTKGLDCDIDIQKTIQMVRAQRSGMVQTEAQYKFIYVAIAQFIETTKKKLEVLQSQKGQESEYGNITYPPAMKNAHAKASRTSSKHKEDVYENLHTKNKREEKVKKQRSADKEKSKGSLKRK

Legend:
[1] = target: Shp1-C455S mutant (human); test: co-IP; 2 ug anti-Shp1 antibody added to 1 mg lysate of serum-starved NIH3T3 cells over-expressing Shp1 WT or mutant, overnight at 4 C, protein A or G beads; cells untreated or treated with 50 uM GroPIns4P for 5 min; Src detected by western blot and normalised to immunoprecipitated Shp1
[2] = target: cyan fluorescent protein (CFP)-labelled construct of Shp1 (Shp1-CFP) (human) (UniProt P29350); test: FRET or BRET; acceptor photobleaching FRET (apFRET), confocal microscope, serum-starved NIH3T3 cells co-transfected with Shp1-CFP and Src-YFP for 24 h, treated with 50 uM GroPIns4P for 5 min

Row | Substance | fold increase of the interaction with 50 uM GroPIns4P against the untreated control [1] [fold] | FRET efficiency in hot spots of the lamellar regions, with 50 uM GroPIns4P [2] [%] | FRET efficiency, average over the cell, with 50 uM GroPIns4P [2] [%]
1 | Src (from UniProt P05480-2 1-535) (enzyme) | 2.2 | – | –
2 | yellow fluorescent protein (YFP)-conjugated Src (Src-YFP) (from UniProt P12931 1-536) (enzyme; other documents disagree on this pair) | – | > 20 | 9
